Experimental data taken from patent US4443607A, “1(2H)-Isoquinolone compounds and acid addition salts thereof” (priority 1981, dated 1984).

Tested on: stomach mucous membrane blood flow
Experiment: Blood flow increasing activity on stomach mucous membrane (aminopyrin clearance method)
Assay type: in vivo, Wistar male rats
Settings: 20 mg/kg intravenous
Protocol: The cardia and pylorus of Wistar male rats (body weight, 250 to 300 g) which fasted 16 hours before abdominal section were ligated under urethane anesthesia, and a cannula was inserted into the preventriculus. In order to keep the stomach in normal state, the cannula was fixed externally and the incised abdomen was closed. Separately, a cannula filed with heparin was inserted into carotid artery.
After operation, the inside of stomach was thoroughly washed with warm physiological saline solution, and 2 ml of a gastric juice (prepared by adjusting a 5% aqueous solution of mannitol to a pH 3.5 with 0.15 N hydrochloric acid, hereinafter the same) was poured into the stomach. Then, aminopyrin was administered via femoral vein at a dose of 30 mg/kg and 30 minutes thereafter aminopyrin was continuously administered at a rate of 6.6 mg/kg/hour. […]
The collection of gastric juice was conducted at 15 minute intervals and 2 ml of the gastric juice was poured into the stomach between the collections. […] 2 ml of the gastric juice drawn (5 ml) was presented to quantitative determination. […]
Then, the amount of aminopyrin in the blood sample and the gastric juice was determined quantitatively and the volume of blood flow in the stomach mucous membrane per gram of the stomach tissue per minute was calculated.

Q: Which results are given for `NC[C@H]1CC[C@H](C(=O)Oc2ccc(CCC(=O)O)cc2)CC1` [cetraxate hydrochloride, reference compound]?
A: blood flow increasing activity (in words) (15 and 30 minutes after administration): significant blood flow increasing activity; percent increase in blood flow (at 15 and 30 minutes): about 35%

Structures can show the parent of a compound that is named as a salt.
